Values of other authors, collected in paper PMC5374433, “Theranostic Value of Multimers: Lessons Learned from Trimerization of Neurotensin Receptor Ligands and Other Targeting Vectors” (Pharmaceuticals, 2017).

Chains of the proteins cited; added tags and fusions are not shown. Lines headed by an entry give the natural chain unless they say otherwise; changes in a name come on top.
UniProt O95665: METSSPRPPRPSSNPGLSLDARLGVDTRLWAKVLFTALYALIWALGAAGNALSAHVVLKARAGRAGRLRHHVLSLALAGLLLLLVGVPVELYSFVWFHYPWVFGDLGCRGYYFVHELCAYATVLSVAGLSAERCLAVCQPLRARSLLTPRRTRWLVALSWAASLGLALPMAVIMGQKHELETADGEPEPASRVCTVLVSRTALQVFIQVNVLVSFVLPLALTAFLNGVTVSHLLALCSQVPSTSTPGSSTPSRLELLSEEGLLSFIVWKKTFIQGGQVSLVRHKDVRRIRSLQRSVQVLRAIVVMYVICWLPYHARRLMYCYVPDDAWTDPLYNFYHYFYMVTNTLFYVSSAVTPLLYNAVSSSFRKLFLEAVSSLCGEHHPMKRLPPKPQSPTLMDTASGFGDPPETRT

Target: Neurotensin receptor 2 (NTS2) (Homo sapiens) (UniProt O95665)
Assay: radioligand
Conditions: cited from earlier work

Substance: NT(8-13)
- Kd: 1.4 nM
